# AlphaSeq binding of Ab-14 light chain variants to a spike HR2 peptide

Reference: Li et al. 2023, doi:10.1038/s41467-023-39022-2. File: FLAb, binding data.

Binding partner: SARS-CoV-2 spike HR2 peptide, sequence PDVDLGDISGINAS.

Parent: Ab-14, a human scFv built as VH, a (GGGGS)3 linker, VL. Only the CDRs of the light chain vary.
VH: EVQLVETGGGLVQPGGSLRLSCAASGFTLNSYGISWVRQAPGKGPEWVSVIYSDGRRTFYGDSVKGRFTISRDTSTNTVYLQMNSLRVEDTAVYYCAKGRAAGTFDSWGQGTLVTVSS
VL: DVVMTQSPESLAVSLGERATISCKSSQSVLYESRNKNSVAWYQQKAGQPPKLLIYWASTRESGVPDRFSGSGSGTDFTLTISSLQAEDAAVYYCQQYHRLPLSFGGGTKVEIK

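Phage display of a naive human antibody library on the peptide gave the parent. The variants were designed computationally from a first round of random CDR variants and then made and measured. Group labels follow the data file (Ctrl: baseline library sampled from a position-specific scoring matrix, with some repeated check sequences; GP: Gaussian process model; HC: hill climbing; Gen: genetic algorithm; Gibbs: Gibbs sampling; a sequence that several methods proposed may carry one label only). In AlphaSeq, yeast of one mating type display the scFv and yeast of the other type display the target. Binding brings cells together so that they mate, and sequencing counts the barcode pairs among the diploids. The ratio of observed to expected reads was calibrated, replicate by replicate, on BCL2-family standards whose Kd was known from biolayer interferometry. Each pool was mated in six replicate cultures.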

Changes read parent residue, position, new residue, counted from the first residue of the VL shown. Variants here have at most six changes. The Kd shown is the geometric mean over detected replicates; a lower Kd is a better binder. "nd" means that the variant was in the library but no mating with the target was seen in any replicate; the authors take this as a sign of poor binding, and no number exists. In the paper, a design with two or fewer of six values counts as a poor binder. As a blank, each scFv also met three strains without target: over all light chain designs, 4% of these pairings were detected, typically at 430 nM and seldom below 38 nM. A sequence measured in both rounds can read differently, since the two assays cover different ranges. Of ten entries with the parent sequence, four were seen in most replicates (averages 2.2 nM to 240 nM), three in one and three in none, so single entries are noisy.

S25L/L30P/Y31T/R34N/S62Q/S103E [Ctrl]: 14 nM (6 of 6 replicates).
Q27P/V29Y/W56E/S103M [GP_HC]: 1.1 nM (6 of 6 replicates).
V29M/R34N/S62D [Ctrl]: 12 nM (6 of 6 replicates).
Q27I/V29F/W56E/S62Q [GP_HC]: 1.0 nM (6 of 6 replicates).
S25V/V29M/W56N/S103Q [GP_Gen]: 500 pM (6 of 6 replicates).
S25L/S26Q/S28Q/V29S/W56E [GP_Gibbs]: 950 pM (6 of 6 replicates).
S25L/V29D/L30G/W56D [GP_Gen]: 580 pM (6 of 6 replicates).
S25Y/Q27N/L30Q/K36A [Ctrl]: 57 nM (6 of 6 replicates).
Q27T/V29N/Y31G/S33L/T59M/L102M [Ctrl]: 730 nM (1 of 6 replicates).
Y31E/W56E [Ctrl]: 9.4 nM (6 of 6 replicates).
Q27F/Y31F/W56D [GP_HC]: 4.0 nM (6 of 6 replicates).
S26A/N35Q/W56G/E61T [Ctrl]: 6.1 nM (6 of 6 replicates).
S25L/S26Q/L30Q/W56E [GP_Gen]: 810 pM (6 of 6 replicates).
S25V/V29N/K36A/W56N/T59Q/E61C [GP_Gibbs]: 680 pM (6 of 6 replicates).
S26E/S28L/V29Y/L30Y/E32G/W56Q [GP_Gibbs]: 3.3 nM (6 of 6 replicates).
S26E/V29E/W56N [GP_Gen]: 590 pM (6 of 6 replicates).
S25L/S26Q/V29E/L30G/W56N [GP_Gen]: 1.2 nM (6 of 6 replicates).
S25V/N35M/W56N/E61F [GP_HC]: 1.5 nM (6 of 6 replicates).
S25L/E32G/S33Q/W56K/E61M/S103Y [GP_Gibbs]: 15 nM (6 of 6 replicates).
S28T/T59Q/H98Q [Ctrl]: nd (0 of 6 replicates).
S25V/R34G/N35D/W56N/T59S [GP_HC]: 11 nM (6 of 6 replicates).
Q27P/V29T/W56H [GP_HC]: 2.4 nM (6 of 6 replicates).
S25V/L30D/W56E [GP_Gen]: 530 pM (6 of 6 replicates).
S26P/V29Q/W56N/S62D [GP_HC]: 1.0 nM (6 of 6 replicates).
S25V/S26E/V29E/S38A/W56N/T59Q [GP_Gen]: 650 pM (6 of 6 replicates).
Q96I [Ctrl]: nd (0 of 6 replicates).
S25C/K36G/S62H [Ctrl]: 71 nM (6 of 6 replicates).
S33I/N37G/S38A/W56R [Ctrl]: 61 nM (2 of 6 replicates).
S25I/V29Q/W56N/E61C [GP_Gen]: 750 pM (6 of 6 replicates).
V29Q/Y31M/R34G/S38N/T59E/Q96R [Ctrl]: nd (0 of 6 replicates).

The first 3 variants above that were never detected:

| changes | group | Kd (apparent) | detected |
|---|---|---|---|
| S28T/T59Q/H98Q | Ctrl | nd | 0 of 6 |
| Q96I | Ctrl | nd | 0 of 6 |
| V29Q/Y31M/R34G/S38N/T59E/Q96R | Ctrl | nd | 0 of 6 |